From ChEMBL document CHEMBL2163263, “Mechanism inspired development of rationally designed dihydrofolate reductase inhibitors as anticancer agents” (J Med Chem, 2012)

Target: T1, Dihydrofolate reductase (Homo sapiens) (UniProt P00374)
T1 sequence (whole entry): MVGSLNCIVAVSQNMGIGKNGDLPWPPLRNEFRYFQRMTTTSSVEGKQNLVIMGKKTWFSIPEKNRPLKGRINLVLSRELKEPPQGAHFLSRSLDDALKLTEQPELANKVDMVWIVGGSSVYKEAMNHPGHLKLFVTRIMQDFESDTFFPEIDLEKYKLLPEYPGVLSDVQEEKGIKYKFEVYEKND
Assay: Binding affinity to DHFR assessed as change in UV-Vis spectra at 10 uM in HEPES buffer at pH 7.2 by UV-Visible spectroscopy

COc1cc(/C=C2\C(=O)Nc3ccccc32)cc(OC)c1O
K: 1.3 ×10⁷ /M
